From US5418162A, “Serotonin transporter CDNA” (Duke University, priority 1992, dated 1995) come the findings set out here.

Sequences of proteins named here, by UniProt entry; tags and fusion partners are left off.
UniProt P31652, whole entry: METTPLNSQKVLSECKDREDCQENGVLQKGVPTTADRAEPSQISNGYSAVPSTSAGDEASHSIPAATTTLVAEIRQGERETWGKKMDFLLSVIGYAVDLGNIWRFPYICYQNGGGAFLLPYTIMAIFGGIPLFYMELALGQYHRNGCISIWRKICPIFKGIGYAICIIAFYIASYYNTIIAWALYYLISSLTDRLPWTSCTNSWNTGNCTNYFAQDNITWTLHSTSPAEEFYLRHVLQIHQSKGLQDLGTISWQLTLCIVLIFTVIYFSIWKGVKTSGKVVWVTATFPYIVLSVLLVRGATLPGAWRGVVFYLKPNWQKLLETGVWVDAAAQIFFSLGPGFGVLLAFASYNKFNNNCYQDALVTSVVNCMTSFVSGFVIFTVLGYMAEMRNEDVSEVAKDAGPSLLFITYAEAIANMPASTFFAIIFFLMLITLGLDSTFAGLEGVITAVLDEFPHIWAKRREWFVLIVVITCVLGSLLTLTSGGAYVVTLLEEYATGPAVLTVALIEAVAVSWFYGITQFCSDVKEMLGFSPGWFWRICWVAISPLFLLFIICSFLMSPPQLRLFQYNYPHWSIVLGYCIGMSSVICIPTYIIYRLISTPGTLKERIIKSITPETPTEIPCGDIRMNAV

The target of this assay is rat 5HT transporter (rSERT) (Rattus norvegicus, UniProt P31652). In words: [3H]5HT transport assay in HeLa cells transfected with BS4E-10 cDNA (rSERT). In kind it is cell-based.

`CNCCC=C1c2ccccc2CCc2ccccc21` [nortriptyline]: the Ki was 73.5 nM.
With `Fc1ccc([C@@H]2CCNC[C@H]2COc2ccc3c(c2)OCO3)cc1` [paroxetine], the affinity corresponds to a Ki of 0.39 nM. Also, for the setting “rSERT in transfected cells vs cloned NA transporter”, the “potency for 5HT transport inhibition compared with inhibition of the cloned NA carrier” value is listed as “nearly three orders of magnitude more potent”.
For `CNCC(O)c1ccc(O)c(O)c1` (centres unmarked) [adrenaline], the Ki is more than 10000 nM.
Regarding `Fc1ccc(C(OCCN2CCN(CCCc3ccccc3)CC2)c2ccc(F)cc2)cc1` [GBR12909], the Ki was 3900 nM.

By Ki is commonly meant the equilibrium dissociation constant of an inhibitor or competing ligand from its target. The low end stands for tighter binding, the high end for weaker binding.
